Values quoted from earlier work in US20230265065A1 (WEST VIRGINIA UNIVERSITY BOARD OF GOVERNORS ON BEHALF OF …, priority 2020, published 2023).

How the values were obtained:
wild-type mice = settings: cited from earlier work
Ptprd knockout mice = settings: cited from earlier work

CCCCOc1cc2c(c(C=O)c1OC)CC(O)OC2=O (centres unmarked)
cocaine conditioned place preference and self-administration (wild-type mice): reduces cocaine conditioned place preference and self-administration | cocaine conditioned place preference and self-administration (Ptprd knockout mice): but not in the Ptprd knockout mice
